Values quoted from earlier work in patent US4937245A, “Bisphenylalkylpiperazine derivatives, a method of their preparation and a pharmaceutical preparation” (priority 1987, dated 1990).

Tested on: 5-HT2 binding site
Details: background statement on known drugs; cited from earlier work

## CN(C)CCC=C1c2ccccc2CCc2ccccc21 [amitriptyline]
  5HT2 blocking potency / binding site preference: potent 5HT2 -blockers
